The values below come from patent US6040149A, “Assay for identifying agents which act on the ceramide-activated protein kinase, kinase suppressor of ras, and methods of using said agents” (priority 1997, dated 2000).

In this experiment the test system is Raf-1. Kind of experiment: Kinase activity of CAP kinase-treated Raf-1 toward MEK1 in vitro. In kind it is biochemical, human (recombinant Raf-1 and MEK1). The procedure: FIG. 18A--Raf-1, phosphorylated by CAP kinase, has enhanced kinase activity toward MEK1.
To investigate whether Raf-1 phosphorylation by CAP kinase leads to Raf-1 activation, the kinase activity of Raf-1 was monitored using MEK1 as substrate (FIG. 18). For these studies, Raf-1 was first phosphorylated by CAP kinase for 30 min using unlabeled ATP, and then MEK1 and [g-^32 P]ATP were added to the reaction mixture.
FIG. 18A--CAP kinase was prepared from TNF-stimulated HL-60 cells (30×10^6 /incubation) as described in FIG. 17. Raf-1, immunoprecipitated with anti-Raf-1 antibody-conjugated Sepharose beads, was phosphorylated for 30 min with a gel slice containing renatured CAP kinase by incubation in Raf-1 reaction buffer without radiolabeled ATP. Control reactions (Raf) received blank gel pieces. The kinase activity of Raf-1 was then measured by phosphorylation of purified recombinant human MEK1 (0.1 mg per reaction) in 50 ml MEK1 reaction buffer [30 mM NaCl, 10 mM MgCl2, 100 mM ATP and 50 mCi [γ-^32 P]ATP. The reaction was terminated at the indicated times by the addition of laemmli buffer and boiled for 5 min. Phosphorylated MEK1 was resolved by 10% SDS-PAGE and autoradiographed. MEK1 autophosphorylation (MEK auto) was performed for 20 min in the absence of Raf-1 or CAP kinase. […]

Regarding “Raf-1: recombinant human Raf-1, a Ser/Thr kinase”, the “Raf-1 singly expressed in Sf9 cells: substrate for / activation by CAP kinase” value is listed as “neither a substrate for, nor activated by, CAP kinase”.
